In patent EP0558321A1 (priority 1992, dated 1993):

Key:
GMK cells = assay: Cytotoxicity observed microscopically in the HSV-1 test; conditions: symbol in parentheses
MDCK cells = assay: Cytotoxicity observed microscopically in the influenza virus test; conditions: symbol in parentheses
[1] = compound concentration 10 µg/ml
[2] = compound concentration 50 µg/ml
[3] = compound concentration 20 µg/ml

Row | SMILES | cytotoxicity (GMK cells; [1]) | cytotoxicity (GMK cells; [2]) | cytotoxicity (MDCK cells; [1]) | cytotoxicity (MDCK cells; [3]) | cytotoxicity (MDCK cells; [2])
1 | OC(c1ccccc1)(C1C2CC3C(C2)C31)C12CCCN1CCC2 (stereo not drawn) [Prep. Ex. 3, (1R*)-1-(1-azabicyclo[3.3.0]octan-5-yl)1-phenyl-1-[(3'S*)-3-tricyclo[2.2.1.0]heptyl]methan-1-ol hydrochloride] | 0.00 (-) | >3.00 (-) | 0.83 (-) | 2.16 (-) | >3.33 (-)
2 | CC(C(O)(c1ccccc1)C1C2CC3C(C2)C31)C12CCCN1CCC2 (centres unmarked) [Prep. Ex. 6, 2-(1-azabicyclo[3.3.0]octan-5-yl)-1-phenyl-1-(3-tricyclo [2.2.1.0]heptyl)propan-1-ol] | 1.00 (±) |  | 0.00 (+) | 1.33 (+) | 

Where a name gives a salt, the structure may show the parent alone.
